{"source": "patent US8815844B2", "about": "“Mitochondrial activity inhibitors of cancer-initiating cells and use thereof” (Universite de Geneve, priority 2009, dated 2014)", "test_system": "FL1^+ cells (glioma-initiating cells, gliomasphere cultures)", "assay": "in vitro recurrence assay (treatment then recovery), viable FL1+ cells by FACS", "assay_type": "cell-based, human", "details": "temsirolimus (1 μM elsewhere in the source), 5 μM cyclopamine, 5 μM DAPT", "source_text": "In contrast to other methods, which preferentially use cancer cell lines and stem cell marker like CD133 as a read-out of stemness, the Applicants' technology relies on primary cell cultures derived from human specimen and on a simple and unbiased detection of CICs independently of the use of any marker. Thus Applicants took advantage of such methodology to design and develop an in vitro recurrence assay to screen and validate potential therapeutic agents for eradicating cancer stem cells in glioma. […] The novelties here reside on the read-out of stemness used for testing the efficiency of any drug and on the possibility to identify specific anti-CSC agent.\nBasically, any agent or inhibitor would be considered as an efficient anti-CSC agent if it fulfils the following criteria:\n• 1) a viability of GICs (FL1^+ cells) decreases for more than 50% during the exposure to said agent or inhibitor during a maximum of 20 days, • 2) a recovery of GICs (FL1^+ cells) is less than 0.2 fold during the recovery phase of a maximum of 20 days, and • 3) the viability of normal brain cells is sustainable and recoverable during and after the exposure to the said agent or inhibitor.\na) Providing a cancer stem cell sample;\nb) Treating the cancer stem cell sample provided under (a) with an agent; […]", "data": [{"smiles": "CC1=C2C[C@H]3[C@@H](CC=C4C[C@@H](O)CC[C@@]43C)[C@@H]2CC[C@]12O[C@@H]1C[C@H](C)CN[C@H]1[C@H]2C", "note": "[cyclopamine, Cyclopamine]", "values": [{"measurement": "number of viable FL1^+ cells", "value": "decrease of the number of viable FL1^+ cells"}]}]}
